Key:
LC3C = biological target: T1, LC3C (Homo sapiens, UniProt Q9BXW4); test: Fluorescence anisotropy assay of FITC-labeled NDP52 CLIR peptides against LC3C; assay type: binding; conditions: fluorescence anisotropy equilibrium, FITC-Ahx-labeled 14-mer NDP52 peptide (aa 128–141), 100 nM mixed with equal volume of serially diluted LC3C; 50 mM Tris, 50 mM NaCl, pH 8.0; errors (Fig. 5B) = standard deviation, triplicate
T1 construct: GST (cleaved yes); made in house; host or cells: E. coli BL21

human ATG8 orthologs = test: Immunoprecipitation / LUMIER binding assay against GST-tagged human ATG8 orthologs; conditions: immunoprecipitation and/or LUMIER, lysates of 293ET cells, GST-tagged ATG8 orthologs on beads
Protocol: These were performed as described previously ([Barrios-Rodiles et al., 2005]; [Ryzhakov and Randow, 2007]). […]
encoding GABARAP; 5’-[…]-3’ and 5’-
-3’ for GABARAPL1/GEC1, encoding GABARAPL1; 5’-
GABARAPL2/GATE-16, encoding GABARAPL2.
Immunoprecipitation and Western blot. Post-nuclear supernatants from 2 x 10^6 HeLa cells were obtained following lysis in 150 mM NaCl, 0.1% (v/v) Triton-X100, 20 mM Tris–HCl (pH 7.4), 5 mM EDTA and Complete protease inhibitors (Roche).
Visualization following immunoblotting was performed using ECL detection reagents […]
LUMIER assay.(Ryzhakov and Randow, 2007; Barrios-Rodiles et al., 2005) Binding assays with pairs of putative interactors, one fused to luciferase and the other fused to GST or Flag, were performed in LUMIER lysis buffer (150 mM NaCl, 0.1% (v/v) Triton-X100, 20 mM Tris–HCl (pH 7.4), 5% (v/v) glycerol, 5 mM EDTA and Complete protease inhibitors (Roche)). GST-fusion proteins were immobilized on beads before incubation for 2 h with equal amounts of luciferase tagged binding partners, as determined by luciferase activity. After washing in lysis buffer, proteins were eluted with glutathione in Renilla lysis buffer (Promega). Relative luciferase activity represents the ratio of activity eluted from beads and present in lysates. […]

Kd (LC3C) [nM]	Molecule	binding selectivity among human ATG8 orthologs (human ATG8 orthologs)
1610 ± 120	CC[C@H](C)[C@H](NC(=O)[C@H](CC(=O)O)NC(=O)[C@H](CCC(=O)O)NC(=O)[C@H](CCC(=O)O)NC(=O)[C@H](CC(N)=O)NC(=O)[C@H](CCC(=O)O)NC(=O)CCCCCNC(=S)Nc1ccc2c(c1)C(=O)OC21c2ccc(O)cc2Oc2cc(O)ccc21)C(=O)N[C@@H](CC(C)C)C(=O)N[C@H](C(=O)N[C@H](C(=O)N[C@H](C(=O)N[C@H](C(=O)N[C@@H](CCC(N)=O)C(=O)NCC(=O)N[C@@H](CCC(=O)O)C(=O)O)[C@@H](C)O)[C@@H](C)O)C(C)C)C(C)C [CLIR^WT]	
	p62: ubiquitin-binding autophagy receptor	interacted nonselectively with all human ATG8 orthologs

From PMC3510444, “LC3C, Bound Selectively by a Noncanonical LIR Motif in NDP52, Is Required for Antibacterial Autophagy” (Molecular Cell, 2012)
